From ChEMBL document CHEMBL5244279, “Perspectives on SARS-CoV-2 Main Protease Inhibitors” (J Med Chem, 2021) come the findings set out here.

Assay [1] deals with T1, Replicase polyprotein 1ab (Severe acute respiratory syndrome coronavirus 2, UniProt P0DTD1). As to the kind of experiment: Inhibition of SARS CoV-2 Main protease incubated for 10 min by FRET assay.
Assay [2] addresses T1, Replicase polyprotein 1ab. The experiment in a line: Inhibition of SARS CoV-2 Main protease using MCA-AVLQSGFR-Lys(DNP)-Lys-NH2 peptide as substrate by fluorescence based analysis.

Molecules are shown by their SMILES.

Broadly, the IC50 is the point on the concentration scale where inhibition reaches its midpoint. High values mean weaker potency, low ones greater potency. As for `O=C[C@H](C[C@@H]1CCNC1=O)NC(=O)[C@@H]1[C@H]2CCC[C@H]2CN1C(=O)COc1ccc(Cl)cc1`, the IC50 in assay [1] worked out at 9.2 nM.
In turn, `O=C[C@H](C[C@@H]1CCNC1=O)NC(=O)[C@@H]1[C@H]2CCC[C@H]2CN1C(=O)CCc1cccc(F)c1` came in with a half-inhibitory concentration (IC50) in assay [1] of 7.6 nM.
Molecule `O=c1c2ccccc2[se]n1-c1ccc([N+](=O)[O-])cc1` gave an IC50 in assay [2] of 260 nM.
